Test results taken from ChEMBL document CHEMBL4411294, “Synthesis and biological evaluation of cyanoaziridine phosphine oxides and phosphonates with antiproliferative activity” (Eur J Med Chem, 2019).

Tests used:
HEK293 = experiment: Cytotoxicity against human HEK293 cells assessed as reduction in cell viability after 48 hrs by CCK8 assay; format: cell-based
A549 = experiment: Cytotoxicity against human A549 cells assessed as reduction in cell viability after 48 hrs by CCK8 assay
MRC5 = experiment: Cytotoxicity against human MRC5 cells assessed as reduction in cell viability after 48 hrs by CCK8 assay; format: cell-based

Structure (SMILES)	IC50 (HEK293) [µM]	IC50 (A549) [µM]	IC50 (MRC5) [µM]
CCOP(=O)(OCC)[C@@H]1N[C@]1(C#N)CC	> 50	1.5	> 50
CC(C)OP(=O)(OC(C)C)[C@@H]1N[C@@]1(C)C#N	> 50	3.6	> 50
CCOP(=O)(OCC)[C@@H]1N[C@@]1(C)C#N	> 50	4.3	> 50
